Experimental findings from PMC7723054 are described below.

The list shows a part of the results.

First the molecules themselves.
B1: hsa-mir-147b (structured_RNA)
RNA: GGGAAAGUCCGGCCAAAGCAUCGGUAAGGGUGUACGAAGUUUCAGCAUUCUGGACACCAGGCUGAAGCUUCGUGCAC
B2: hsa-mir-1305 (structured_RNA)
RNA: GGGAACGGUAUCUGCAUAUUCUCACGAGGGUGUACGAAGUUUCAGCAUGUUUAUUGUAAAGAUACUUUGCUGAAGCUUCGUGCAC
B3: hsa-mir-548ak (structured_RNA)
RNA: GGGAACAACACUGGCGCCGGAAAACUCUGGUGUACGAAGUUUCAGCUUGAGAAGUAAUUGAGCUGAAGCUUCGUGCAC
B4: hsa-mir-3926-2 (structured_RNA)
RNA: GGGACAAUUAACGCGGCUUGGCUACAUUGGUGUACGAAGUUUCAGCGAGACGCUUUUAAAGUCUCGCUGAAGCUUCGUGCAC
B5: hsa-mir-6767 (structured_RNA)
RNA: GGGACCCAAACACGGCAAAUCUUCACUCGGUGUACGAAGUUUCAGCAUGGAGAACGCCCCCACCAGUUCCCACGCUGAAGCUUCGUGCAC
B6: hsa-mir-574 (structured_RNA)
RNA: GGGAGAGACGUAACACUUGCCGCGUGAGGGUGUACGAAGUUUCAGCUGUGUGUCGCUCCGGGUCCACGGCUGAAGCUUCGUGCAC
B7: hsa-mir-4438 (structured_RNA)
RNA: GGGAAAUCGAACGGUGAAGCUACAUAGUGGUGUACGAAGUUUCAGCUGUGCCUUGCCUUUCCUUUGGCACAGCUGAAGCUUCGUGCAC
B8: hsa-mir-26b (structured_RNA)
RNA: GGGAGAGUCAGCUCCCGUCAUCUUGUCGGGUGUACGAAGUUUCAGCUAGGUUGUGUGCUGUCCAGCCUGGCUGAAGCUUCGUGCAC
B9: hsa-mir-219b (structured_RNA)
RNA: GGGAAAGGGUGCCGAACCUAGACAUAAGGGUGUACGAAGUUUCAGCUUCUCGGUUGGCCGCAGACUCGUACAAGAAGCUGAAGCUUCGUGCAC
B10: hsa-mir-933 (structured_RNA)
RNA: GGGAAGACGUCGGCCCAUUCGUCUUCAGGGUGUACGAAGUUUCAGCCGCGCGUCGAGUCAGCCGUGUGGCUGAAGCUUCGUGCAC
B11: hsa-mir-487a (structured_RNA)
RNA: GGGAUGAUCCUGUACUGCUAUUUGCGGUGGUGUACGAAGUUUCAGCGUUCGCUUAAUUUAUGACGAAUCGCUGAAGCUUCGUGCAC
B12: hsa-mir-1250 (structured_RNA)
RNA: GGGAAGGACACAUAGUAAGUCCGCCAUCGGUGUACGAAGUUUCAGCUGUGGCCUUUUUGCCUUUUCUAAAGGCCACAUGCUGAAGCUUCGUGCAC
B13: hsa-mir-3911 (structured_RNA)
RNA: GGGAUCUUAUGUCCCACUAGCGGCAACCGGUGUACGAAGUUUCAGCGCAGAGAAGACAGUGAGCUUGCCAGUUCUGGUUUCCAACACUUCCUUUCCUGCGGCUGAAGCUUCGUGCAC

The first assay concerns the target T1, LIN28A (human?, UniProt Q9H9Z2 1-209).
T1 sequence: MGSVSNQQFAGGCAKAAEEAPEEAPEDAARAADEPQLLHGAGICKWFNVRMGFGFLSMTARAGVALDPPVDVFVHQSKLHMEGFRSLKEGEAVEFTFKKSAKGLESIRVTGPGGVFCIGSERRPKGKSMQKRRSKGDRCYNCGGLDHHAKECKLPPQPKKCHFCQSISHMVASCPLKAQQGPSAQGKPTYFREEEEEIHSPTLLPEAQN
Description: FOREST: bead pull-down of RNA structure library v1, barcode microarray; U1A/LIN28A: 20 mM HEPES pH 7.5, 80 mM KCl, 20 mM NaCl, 10% glycerol, 2 mM DTT, 0.1 ug/uL BSA, 4 C; BG4/CIRBP/DHX36: 10 mM Tris-HCl pH 7.5, 100 mM KCl (or LiCl),; high values mean tight binding.
B1: the binding signal was -0.271 z-score.

B2 came in with a binding signal of -0.254 z-score.

As to B3, the binding signal is -0.25 z-score.

Take B4: the binding signal was -0.273 z-score.

With B5, the binding signal is -0.269 z-score.

Molecule B6 returned a binding signal of -0.262 z-score.

As for B7, the binding signal was -0.268 z-score.

B8 displayed a binding signal of -0.26 z-score.

B9 had a binding signal of -0.252 z-score.

For B10, the binding signal was -0.274 z-score.

Molecule B11 yielded a binding signal of -0.274 z-score.

The molecule B12 gave a binding signal of -0.252 z-score.

On to B13, for which the binding signal is -0.269 z-score.

Another assay deals with T2, CIRBP (Homo sapiens, UniProt Q14011 1-172).
T2 sequence: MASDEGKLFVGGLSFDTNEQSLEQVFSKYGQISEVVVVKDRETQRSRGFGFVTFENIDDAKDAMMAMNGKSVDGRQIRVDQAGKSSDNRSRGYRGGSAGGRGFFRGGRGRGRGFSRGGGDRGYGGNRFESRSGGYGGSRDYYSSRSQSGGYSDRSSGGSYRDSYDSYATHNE
Described as above.
Turning to B1, the binding signal stood at 0.734 z-score.

For B2, the binding signal stood at 0.187 z-score.

In turn, B3 displayed a binding signal of -0.245 z-score.

B4 yielded a binding signal of 1.01 z-score.

B5 showed a binding signal of -0.711 z-score.

As to B6, the binding signal is -0.523 z-score.

Turning to B7, the binding signal is 0.0269 z-score.

On to B8, for which the binding signal is -1.15 z-score.

On to B9, for which the binding signal is 0.628 z-score.

For the molecule B10, the binding signal was -0.605 z-score.

As to B11, the binding signal was -0.862 z-score.

B12 registered a binding signal of 0.186 z-score.

Molecule B13 registered a binding signal of -1.11 z-score.

A further assay deals with T3, DHX36 (Homo sapiens, UniProt Q9H2U1 1-1008).
T3 sequence: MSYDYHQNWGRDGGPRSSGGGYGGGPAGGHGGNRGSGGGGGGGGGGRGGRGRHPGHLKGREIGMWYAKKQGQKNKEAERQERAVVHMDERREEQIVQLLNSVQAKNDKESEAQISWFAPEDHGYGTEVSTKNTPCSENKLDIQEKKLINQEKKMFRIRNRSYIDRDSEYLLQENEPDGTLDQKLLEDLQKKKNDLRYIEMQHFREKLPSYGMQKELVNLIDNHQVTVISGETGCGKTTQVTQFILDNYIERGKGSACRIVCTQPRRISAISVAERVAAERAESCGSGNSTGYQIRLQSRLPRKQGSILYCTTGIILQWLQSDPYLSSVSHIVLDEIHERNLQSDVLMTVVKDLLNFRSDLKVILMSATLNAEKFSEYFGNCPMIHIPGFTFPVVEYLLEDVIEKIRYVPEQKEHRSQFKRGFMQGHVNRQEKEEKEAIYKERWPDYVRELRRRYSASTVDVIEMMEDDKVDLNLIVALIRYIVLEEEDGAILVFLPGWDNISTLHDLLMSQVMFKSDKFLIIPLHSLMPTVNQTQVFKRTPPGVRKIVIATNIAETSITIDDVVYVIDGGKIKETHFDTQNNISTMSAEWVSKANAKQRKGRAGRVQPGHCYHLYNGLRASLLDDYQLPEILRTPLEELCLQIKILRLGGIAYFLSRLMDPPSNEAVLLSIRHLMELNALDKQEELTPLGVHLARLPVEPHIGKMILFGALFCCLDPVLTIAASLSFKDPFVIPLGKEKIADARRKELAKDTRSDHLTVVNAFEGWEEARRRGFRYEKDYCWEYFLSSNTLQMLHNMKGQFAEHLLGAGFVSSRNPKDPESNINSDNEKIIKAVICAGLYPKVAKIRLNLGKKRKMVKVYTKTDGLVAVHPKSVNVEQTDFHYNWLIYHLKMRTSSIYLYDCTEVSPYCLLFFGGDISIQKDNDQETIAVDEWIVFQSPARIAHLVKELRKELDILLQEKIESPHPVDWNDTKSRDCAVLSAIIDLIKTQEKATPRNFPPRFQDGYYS
Described as above.
For the molecule B1, the binding signal is -0.652 z-score.

On to B2, for which the binding signal is -0.198 z-score.

For B3, the binding signal is 0.00866 z-score.

In turn, B4 gave a binding signal of -0.0895 z-score.

B5 had a binding signal of -0.681 z-score.

B6 registered a binding signal of 0.826 z-score.

Molecule B7 had a binding signal of -0.253 z-score.

In turn, B8 registered a binding signal of 1.09 z-score.

The molecule B9 gave a binding signal of -0.0693 z-score.

B10: the binding signal turned out to be 0.0895 z-score.

On to B11, for which the binding signal is -1.17 z-score.

Molecule B12 gave a binding signal of -0.162 z-score.

In turn, B13 registered a binding signal of -0.734 z-score.
